Measured values taken from patent US4092304A, “4-Substituted enkephalin derivatives” (G. D. Searle & Co., priority 1976, dated 1978).

Tested on: opiate receptor sites
Conditions: guinea pig whole brain membranes (cerebella removed), 4° C., in the absence of sodium ion

Compound	ID50 concentration of the 3H-naloxone binding
CCC(=O)C(CC(C)N(C)C)(c1ccccc1)c1ccccc1 (centres unmarked) [methadone]	2.4 × 10^-8
CN1CC[C@]23c4c5ccc(O)c4O[C@H]2[C@@H](O)C=C[C@H]3[C@H]1C5 [morphine]	1.2 × 10^-8
